These results are taken from patent US6391899B1, “Compounds and compositions for treating tissue ischemia” (North Shore—Long Island Jewish Research Institute, priority 1998, dated 2002).

The subject of assay [1] is focal cerebral ischemia. The following applies: 320 mg/kg i.p. 15 minutes post-ischemia, then every 8 hr; from Cockroft et al.; cited from earlier work.
Assay [2] concerns brain 3-aminopropanal. Briefly: Brain 3-aminopropanal level after middle cerebral artery occlusion (derivatization and HPLC). As to conditions: 320 mg/kg i.p. 15 minutes post-ischemia, then every 8 hr; 25 hours.
Assay [3] deals with focal cerebral ischemia. As to conditions: 25 mg/kg i.p. 15 minutes post-ischemia; measured 25 hours after onset of ischemia.

Like-named read-outs stand apart in the source and are kept apart here. Marks after values point to notes of the source that are not given here.

Regarding `N=C(N)NN` [aminoguanidine], the “Infarct Volume (mm^3)” value in assay [1] is on record as 12 ± 2*# mm^3. The “Brain 3-aminopropanal level (μmol/g protein)” value in assay [2] is “not detectable”. As for `CCN(CC)CCCC(C)Nc1ccnc2cc(Cl)ccc12` (stereo not drawn) [chloroquine], the “Infarct Volume (mm^3)” value in assay [3] is 27 ± 8* mm^3.
